# ChEMBL document CHEMBL1926669, “Quantitative structure-activity relationships of 1,3,4-thiadiazol-2(3H)-ones and 1,3,4-oxadiazol-2(3H)-ones as human protoporphyrinogen oxidase inhibitors” (Bioorg Med Chem, 2012)
# Molecular target: T1, Protoporphyrinogen oxidase (Homo sapiens, UniProt P50336)
# T1 sequence (P50336 whole entry): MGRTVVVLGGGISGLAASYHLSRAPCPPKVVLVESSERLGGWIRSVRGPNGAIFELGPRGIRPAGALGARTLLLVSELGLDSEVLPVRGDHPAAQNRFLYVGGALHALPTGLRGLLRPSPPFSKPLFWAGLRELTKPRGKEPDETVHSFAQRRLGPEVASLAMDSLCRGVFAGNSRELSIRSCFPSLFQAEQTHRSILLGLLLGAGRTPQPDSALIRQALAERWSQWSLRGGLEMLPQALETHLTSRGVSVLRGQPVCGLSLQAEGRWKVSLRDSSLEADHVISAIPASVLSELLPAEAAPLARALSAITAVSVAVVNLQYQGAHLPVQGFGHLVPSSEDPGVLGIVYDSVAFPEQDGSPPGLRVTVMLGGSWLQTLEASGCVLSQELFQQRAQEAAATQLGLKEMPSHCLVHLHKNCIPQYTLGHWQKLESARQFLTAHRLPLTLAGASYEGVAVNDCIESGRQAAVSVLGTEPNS
# Test: Inhibition of human PPO by capillary electrophoresis method
row,SMILES,Ki [µM]
1,CCCOC(=O)CSc1nc2cc(-n3nc(C(C)(C)C)sc3=O)c(F)cc2s1,1.31
2,CCOC(=O)CCSc1nc2cc(-n3nc(C(C)(C)C)sc3=O)c(F)cc2s1,9.26
3,CCOC(=O)CCCSc1nc2cc(-n3nc(C(C)(C)C)sc3=O)c(F)cc2s1,8.67
4,C#CCSc1nc2cc(-n3nc(C(C)(C)C)sc3=O)c(F)cc2s1,9.73
5,CCOC(=O)CSc1nc2cc(-n3nc(C(C)(C)C)sc3=O)c(Cl)cc2s1,5.82
6,CCOC(=O)CCSc1nc2cc(-n3nc(C(C)(C)C)sc3=O)c(Cl)cc2s1,1.28
